From patent US10472355B2, “Cancer treatment utilizing SP-141 to bind with MDM2 and act as an inhibitor of MDM2 expression” (Texas Tech University System, priority 2014, dated 2019)

Amino acid sequences for entries named in this document (tags omitted).
UniProt Q00987, whole entry: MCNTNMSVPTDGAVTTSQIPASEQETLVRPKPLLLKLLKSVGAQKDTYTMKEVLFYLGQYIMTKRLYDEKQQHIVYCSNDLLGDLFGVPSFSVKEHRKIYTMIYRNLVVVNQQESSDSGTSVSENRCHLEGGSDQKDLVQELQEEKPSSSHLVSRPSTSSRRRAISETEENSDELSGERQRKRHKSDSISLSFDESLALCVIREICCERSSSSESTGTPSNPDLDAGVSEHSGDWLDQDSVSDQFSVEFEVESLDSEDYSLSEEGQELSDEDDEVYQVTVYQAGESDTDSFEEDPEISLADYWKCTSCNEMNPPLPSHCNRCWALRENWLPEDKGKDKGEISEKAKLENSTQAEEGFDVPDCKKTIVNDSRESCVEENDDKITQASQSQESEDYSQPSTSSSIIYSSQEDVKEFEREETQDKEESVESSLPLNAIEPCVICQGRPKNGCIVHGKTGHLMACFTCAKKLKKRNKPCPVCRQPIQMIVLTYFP

Target: GST-MDM2 (Homo sapiens, UniProt Q00987)
Assay: Biotin-avidin pull-down assay with biotinylated SP-141
Format: binding
Conditions: competition; reduction proportional to dose
Description: As illustrated in FIGS. 2 and 3.
A western blot analysis is illustrated in FIG. 5. […] Purified GST was used as a negative control. The bound protein was detected using anti-MDM2 and anti-GST antibodies.
The bound protein was detected using anti-MDM2 antibody.

For `COc1ccc(C2=N[C@@H](c3ccc(Cl)cc3)[C@@H](c3ccc(Cl)cc3)N2C(=O)N2CCNC(=O)C2)c(OC(C)C)c1` [nutlin-3, reference compound], the “Effect on Biotin-SP-141-MDM2 binding” value was “markedly reduced”.
